Reference: patent publication US20100004459A1, “2-PHENYLNICOTINIC ACID DERIVATIVE” (NIPPON ZOKI PHARMACEUTICAL CO., LTD., priority 2006, published 2010)
pIC50: −log10 of the molar value.

Protein sequences, listed by entry. Tags and fused reporters are not part of them.
UniProt P80457, whole entry: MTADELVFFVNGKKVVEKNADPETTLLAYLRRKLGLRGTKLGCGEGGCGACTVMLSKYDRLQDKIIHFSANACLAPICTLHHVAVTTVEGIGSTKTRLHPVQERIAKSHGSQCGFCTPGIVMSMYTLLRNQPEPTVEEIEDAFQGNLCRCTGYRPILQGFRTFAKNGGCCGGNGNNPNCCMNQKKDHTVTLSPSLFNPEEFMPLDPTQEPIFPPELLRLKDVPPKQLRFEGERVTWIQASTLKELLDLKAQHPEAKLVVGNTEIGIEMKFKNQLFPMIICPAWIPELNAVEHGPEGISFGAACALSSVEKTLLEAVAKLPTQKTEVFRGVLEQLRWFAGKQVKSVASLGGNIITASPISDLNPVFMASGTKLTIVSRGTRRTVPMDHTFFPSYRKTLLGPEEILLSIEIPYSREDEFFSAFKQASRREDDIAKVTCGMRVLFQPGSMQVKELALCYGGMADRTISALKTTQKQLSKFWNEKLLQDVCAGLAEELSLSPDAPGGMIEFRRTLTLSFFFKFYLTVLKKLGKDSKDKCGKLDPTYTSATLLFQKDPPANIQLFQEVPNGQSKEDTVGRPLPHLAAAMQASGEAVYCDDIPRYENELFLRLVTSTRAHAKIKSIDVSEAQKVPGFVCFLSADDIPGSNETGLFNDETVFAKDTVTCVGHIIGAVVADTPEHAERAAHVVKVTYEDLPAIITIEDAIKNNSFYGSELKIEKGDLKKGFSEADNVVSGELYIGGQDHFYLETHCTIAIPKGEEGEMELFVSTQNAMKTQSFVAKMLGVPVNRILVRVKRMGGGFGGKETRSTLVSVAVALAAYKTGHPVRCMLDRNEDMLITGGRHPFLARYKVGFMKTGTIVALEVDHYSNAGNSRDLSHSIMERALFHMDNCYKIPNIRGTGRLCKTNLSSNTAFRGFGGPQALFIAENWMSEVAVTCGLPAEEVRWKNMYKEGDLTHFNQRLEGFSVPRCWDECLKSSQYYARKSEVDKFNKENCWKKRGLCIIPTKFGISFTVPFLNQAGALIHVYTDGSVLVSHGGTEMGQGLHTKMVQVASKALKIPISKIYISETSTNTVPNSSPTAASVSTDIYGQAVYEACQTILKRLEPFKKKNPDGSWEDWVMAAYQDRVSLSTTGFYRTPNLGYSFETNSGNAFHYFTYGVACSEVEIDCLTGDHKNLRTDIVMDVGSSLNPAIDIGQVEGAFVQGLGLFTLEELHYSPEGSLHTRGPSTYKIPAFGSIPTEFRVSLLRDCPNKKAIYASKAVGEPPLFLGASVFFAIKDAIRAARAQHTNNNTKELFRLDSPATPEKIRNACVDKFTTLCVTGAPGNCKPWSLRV

Target: xanthine oxidase (Bos taurus, UniProt P80457)
Experiment: Test for xanthine oxidase inhibitory activity
Conditions: xanthine oxidase derived from milk (Sigma); substrate xanthine; uric acid production at OD 292 nm, 37° C.
Description: Evaluation of inhibitory activity of the present invention to xanthine oxidase was conducted using xanthine as a substrate by measuring the amount of uric acid produced by xanthine oxidase which is an oxidizing enzyme therefor. Thus, xanthine oxidase (0.01 unit/L, 20 μL/well; derived from milk; manufactured by Sigma), diethylenetriamine pentaacetate (0.01 mol/L, 20 μL/well), phosphate buffer (20 μL/well), distilled water (100 μL/well) and a diluted solution (20 μL/well) of a test substance were mixed in a 96-well quartz microplate. After preincubating for 5 minutes in a microplate spectrophotometer warmed at 37° C., xanthine (1 mmol/L, 20 μL/well) was added. The changes with elapse of time in OD 292 nm based on the production of uric acid was measured using a microplate spectrophotometer warmed at 37° C. whereby the initial reaction velocity was measured. Xanthine oxidase inhibitory activity was calculated by the following formula and concentration of the test substance for 50% suppression (IC50 value) was calculated.
Inhibition Rate(%)={[(Initial Reaction Velocity of the Reaction Control)-(Initial Reaction Velocity upon Addition of Test Substance)]/[Initial Reaction Velocity of the Reaction Control]}×100

pIC50: 7.47
SMILES: N#Cc1cc(-c2ncccc2C(=O)O)ccc1OCCCOc1ccccc1
